# Measured values taken from PubChem BioAssay AID1851 (National Center for Advancing Translational Sciences (NCATS), 2009).
# Amino acid sequences for entries named in this document (tags omitted).
# UniProt P11712, whole entry, looked up: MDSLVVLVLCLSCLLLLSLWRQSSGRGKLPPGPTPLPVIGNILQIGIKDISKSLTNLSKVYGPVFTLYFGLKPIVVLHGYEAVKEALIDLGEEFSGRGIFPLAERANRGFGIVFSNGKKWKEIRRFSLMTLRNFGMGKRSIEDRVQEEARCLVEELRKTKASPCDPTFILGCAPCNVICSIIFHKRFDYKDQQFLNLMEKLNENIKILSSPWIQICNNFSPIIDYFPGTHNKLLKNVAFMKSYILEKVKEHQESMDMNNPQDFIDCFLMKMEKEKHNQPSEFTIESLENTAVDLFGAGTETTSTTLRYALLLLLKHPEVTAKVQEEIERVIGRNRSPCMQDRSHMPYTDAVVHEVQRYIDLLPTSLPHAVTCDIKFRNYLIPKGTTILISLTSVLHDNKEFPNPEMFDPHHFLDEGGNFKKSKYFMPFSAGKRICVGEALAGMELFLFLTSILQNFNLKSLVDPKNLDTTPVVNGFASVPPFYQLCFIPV
# The hits were mostly taken out for another list; the other results follow. Inconclusive results are not listed. Calls of active or inactive are those of the source. Calls follow the shape of the dose curve; as a rule, active = well fitted curve in the direction sought with a large enough effect; inconclusive = small, poorly fitted or top-dose-only effect, or effect the other way; inactive = no such curve, though single readings can be large or run the other way.
# Molecular target: Cytochrome P450 2C9 (Homo sapiens) (UniProt P11712)
# Experiment: Cytochrome panel assay with activity outcomes
# Settings: recombinant CYP, pro-luciferin dealkylation, luminescence, p450-cyp2c9; at 57.1 µM (top of the series) unless noted
# % is scaled to controls: 0 for no effect and ±100 for the full control effect.
row,SMILES,"activity, negative = inhibition"
1,CN(CCC(=O)O)C1=Nc2ccc(Cl)cc2C(c2ccccc2)=[N+]([O-])C1,inactive: 3.82% [at 11.4 µM]
2,CN1CCCC2(CCN(C(=O)c3csnn3)CC2)C1,inactive: 3.69%
